Here are results for one compound from patent publication US12171868B2 (Neurelis, Inc., priority 2022, dated 2024).

The structures appear in SMILES notation.

Regarding `Cc1cc2c(s1)Nc1ccccc1N=C2N1CCN(C)CC1` [Olanzapine, 2-methyl-4-(4-methyl-1-piperazinyl)-10H-thieno[2,3-b] [1,5]benzodiazepine], the “compatibility between olanzapine and the individual solvents (degradation products, color changes)” value (Vitamin E, benzyl alcohol and ethanol, two weeks at 40° C.) is listed as “significant incompatibilities existed”. For the same compound, the “USP Related Compounds B and C” value (dimethylacetamide and PEG 400 individually, approximately 5 mg/mL, two-month period at 40° C.) is “did not significantly increase”.
